This passage reports inhibition results from PubChem BioAssay AID686940 (The Scripps Research Institute Molecular Screening Center, 2013).

Chains of the proteins cited; added tags and fusions are not shown.
UniProt P24468, whole entry: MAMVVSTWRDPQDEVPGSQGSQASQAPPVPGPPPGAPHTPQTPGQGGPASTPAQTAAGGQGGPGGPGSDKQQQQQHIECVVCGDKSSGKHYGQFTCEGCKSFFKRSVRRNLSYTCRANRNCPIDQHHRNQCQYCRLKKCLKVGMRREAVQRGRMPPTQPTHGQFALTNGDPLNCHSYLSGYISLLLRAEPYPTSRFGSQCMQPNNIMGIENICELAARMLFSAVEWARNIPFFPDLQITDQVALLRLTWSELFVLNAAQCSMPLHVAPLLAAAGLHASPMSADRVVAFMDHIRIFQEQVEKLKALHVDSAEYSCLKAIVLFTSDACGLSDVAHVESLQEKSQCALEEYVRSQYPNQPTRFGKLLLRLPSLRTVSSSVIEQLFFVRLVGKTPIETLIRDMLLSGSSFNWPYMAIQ

By inhibition is commonly meant the relative decrease from the control value, in per cent.

Molecules are shown by their SMILES. Only a part is listed here, and it is no random draw. Activity calls are given as the source filed them.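 Rule for the calls: active = inhibition above a per-plate cutoff, mean inhibition of test wells between control levels plus 3 SD (cut at about 38% in these data); inactive = the rest.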

The target in the assay is COUP transcription factor 2 (Homo sapiens) (UniProt P24468). The experiment in a line: NR2F2 transcriptional activity inhibitors, primary screen, cell-based, luciferase reporter, HEK293T, luminescence (AID 686940).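 Note: cells cotransfected with COUP-TFII expression vector driving the NGFI-A reporter; 0% = median of COUP-TF2 test wells and 100% = reporter-only cells.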 The conditions noted are these: HEK293T NGFI-A luciferase reporter, at 8.6 µM, active compounds read high. Background: A reporter such as luciferase makes a cellular process visible.
For the molecule `CN1CCC(Nc2ccc(F)c(Cl)c2)CC1`, the inhibition is inactive: -9.39%. The figure for `CCOc1ncccc1C(=O)NCC1(N2CCOCC2)CCCCC1` is inactive: -4.32%; for `CCCOc1ccc(C(=O)NCC2(N(C)C)CCCCC2)cc1` it is inactive: -9.57%. For `O=c1[nH]c2ccccc2n1C1CCN(C(c2cc3ccccc3o2)c2nnnn2C2CCCC2)CC1` (configuration not stated) the value was inactive: -3.53%; for `O=C(O)C1(Nc2ccccc2)CCN(Cc2ccccc2)CC1`, inactive: 8.41%. As for `NN(c1ccccc1)C1CCN(CCc2ccccc2)CC1`, the inhibition is inactive: 10.6%.

Regarding `CC(C)(C)OC(=O)N1CCC(Nc2ccccc2)CC1`, the inhibition was inactive: 3.37%. Consider `CCC(CO)(C(=O)OC1CN2CCC1CC2)c1ccccc1` (configuration not stated), for which the inhibition was inactive: -11%. As to `COc1cccc(C(c2nnnn2C2CCCC2)N2CCC(n3c(=O)[nH]c4ccccc43)CC2)c1OC` (configuration not stated), the inhibition was inactive: 19%. The figure for `COc1cc(OC)cc(C(=O)NCC2(N3CCOCC3)CCCCC2)c1` is inactive: 6.22%.

Turning to `COc1cccc(C(=O)N(c2cc(C)cc(C)c2)C2CCN(C(=O)OC(C)(C)C)CC2)c1`, the inhibition is inactive: 18.2%. For `CN1CCC(Nc2ccc(Cl)cc2)CC1` the value was inactive: 13.2%; for `O=c1[nH]c2ccccc2n1C1CCN(C(c2ccnc3ccccc23)c2nnnn2C2CCCCC2)CC1` (configuration not stated), inactive: -4.39%; for `COc1cc(OC)cc(C(=O)NCC2(N3CCCCC3)CCCCC2)c1`, inactive: -11.6%. With `CCC(c1nnnn1C1CCCCC1)N1CCC(n2c(=O)[nH]c3ccccc32)CC1` (configuration not stated), the inhibition was inactive: 11.1%. For `CC(=O)N(c1ccccc1)C1CCNCC1` the value was inactive: -6.7%; for `COc1cccc(C(c2nnnn2C2CCCCC2)N2CCC(n3c(=O)[nH]c4ccccc43)CC2)c1OC` (configuration not stated), inactive: 34.8%.

For `Cc1ccc(NC2(C#N)CCN(Cc3ccccc3)CC2)cc1`, the inhibition was inactive: -23.1%. The figure for `Fc1ccccc1NC1CCN(Cc2ccccc2)CC1` is inactive: 2.65%; for `Cc1ccc(C(=O)NCC2(N3CCCCC3)CCCCC2)o1` it is inactive: 6.35%. For the molecule `CC(C)(C)n1nnnc1C(c1ccnc2ccccc12)N1CCC(n2c(=O)[nH]c3ccccc32)CC1` (configuration not stated), the inhibition was inactive: -3.05%. Regarding `COc1ccc(C(c2nnnn2C2CCCCC2)N2CCC(n3c(=O)[nH]c4ccccc43)CC2)cc1` (configuration not stated), the inhibition is inactive: -21.7%. For the molecule `CCN1CCC(Nc2cccc(F)c2)CC1`, the inhibition is inactive: 0.02%. The figure for `Cc1ccccc1NC1(C#N)CCN(Cc2ccccc2)CC1` is inactive: -7.28%; for `Cn1c(=O)[nH]cc(N(CCCl)CCCl)c1=O` it is inactive: -15.3%; for `CN(C)c1ccc(C(=O)NCC2(N3CCCCC3)CCCCC2)cc1` it is inactive: 13.4%. For `O=C(NCC1(N2CCCCC2)CCCCC1)c1ccco1` the value was inactive: 16.2%.
